In patent US20030139352A1, “Inhibitors of ABC drug transporters in cancer cells” (priority 2001, published 2003):
Read-outs that look alike come from different tables or passages of the source.

By UniProt entry, the sequences of proteins in these tests, tags left out.
UniProt P08183, whole entry: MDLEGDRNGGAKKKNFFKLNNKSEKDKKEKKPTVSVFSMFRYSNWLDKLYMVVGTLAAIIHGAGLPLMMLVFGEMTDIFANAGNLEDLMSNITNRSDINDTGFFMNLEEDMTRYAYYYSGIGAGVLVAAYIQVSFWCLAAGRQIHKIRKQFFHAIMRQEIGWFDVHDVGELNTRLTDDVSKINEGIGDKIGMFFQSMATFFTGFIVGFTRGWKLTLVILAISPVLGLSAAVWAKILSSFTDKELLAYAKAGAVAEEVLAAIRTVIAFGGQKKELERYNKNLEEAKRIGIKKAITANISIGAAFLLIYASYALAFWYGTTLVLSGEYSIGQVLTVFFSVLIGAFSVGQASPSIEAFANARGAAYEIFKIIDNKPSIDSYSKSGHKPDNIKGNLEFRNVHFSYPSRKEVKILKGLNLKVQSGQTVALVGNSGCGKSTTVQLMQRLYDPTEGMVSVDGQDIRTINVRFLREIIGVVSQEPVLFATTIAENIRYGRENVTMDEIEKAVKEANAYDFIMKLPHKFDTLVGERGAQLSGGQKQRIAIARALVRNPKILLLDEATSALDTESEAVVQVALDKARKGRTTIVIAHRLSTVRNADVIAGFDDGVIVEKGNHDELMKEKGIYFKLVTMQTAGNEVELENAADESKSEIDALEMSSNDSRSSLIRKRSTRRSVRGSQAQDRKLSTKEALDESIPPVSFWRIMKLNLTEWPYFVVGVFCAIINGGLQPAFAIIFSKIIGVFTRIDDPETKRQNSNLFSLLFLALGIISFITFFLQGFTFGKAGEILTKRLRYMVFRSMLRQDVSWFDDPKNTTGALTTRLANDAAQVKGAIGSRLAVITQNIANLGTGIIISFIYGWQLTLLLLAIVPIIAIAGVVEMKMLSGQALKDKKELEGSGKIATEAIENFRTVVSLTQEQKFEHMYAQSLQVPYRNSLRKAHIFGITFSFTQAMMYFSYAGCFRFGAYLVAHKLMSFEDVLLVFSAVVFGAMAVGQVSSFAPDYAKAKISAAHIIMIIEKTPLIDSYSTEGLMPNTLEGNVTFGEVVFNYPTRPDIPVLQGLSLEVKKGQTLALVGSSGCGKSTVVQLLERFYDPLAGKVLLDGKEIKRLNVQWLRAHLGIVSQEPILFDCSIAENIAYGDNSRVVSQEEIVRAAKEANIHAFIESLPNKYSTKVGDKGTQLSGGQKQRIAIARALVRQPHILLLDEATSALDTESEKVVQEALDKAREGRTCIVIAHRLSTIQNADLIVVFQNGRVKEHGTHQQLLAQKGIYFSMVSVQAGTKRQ

Columns and labels:
human PGP [1] = target: T1, human PGP (Homo sapiens, UniProt P08183); conditions: 15B-J (PGP), 10 μM in donor
in vitro = conditions: pig, LLC-PK1, pH 7.2
human PGP [2] = target: T1, human PGP; assay: in vitro; conditions: LLC-PK1, pH 7.2

pmoles in Receiver (human PGP [1]; A→B, 30 min): 6 pmol | pmoles in Receiver (human PGP [1]; A→B, 120 min): 24 pmol | pmoles in Receiver (human PGP [1]; B→A, 30 min): 24 pmol | pmoles in Receiver (human PGP [1]; B→A, 120 min): 135 pmol | efflux ratio at 30 min, 10 μM (in vitro): 1.1 | efflux ratio at 60 min, 10 μM (in vitro): 1.4 | efflux ratio at 90 min, 10 μM (in vitro): 1.6 | efflux ratio at 120 min, 10 μM (in vitro): 1.9 | efflux ratio at 30 min, 10 μM (human PGP [2]): 3.8 | efflux ratio at 60 min, 10 μM (human PGP [2]): 2.6 | efflux ratio at 90 min, 10 μM (human PGP [2]): 4.4 | efflux ratio at 120 min, 10 μM (human PGP [2]): 5.7
SMILES: CC(=O)O[C@H]1C(=O)[C@@]2(C)[C@H]([C@H](OC(=O)c3ccccc3)[C@]3(O)C[C@H](OC(=O)[C@H](O)[C@@H](NC(=O)c4ccccc4)c4ccccc4)C(C)=C1C3(C)C)[C@]1(OC(C)=O)CO[C@@H]1C[C@@H]2O [Taxol, taxol]
